Assay results from patent publication US9206463B2, “Method of testing a disinfectant or antibiotic using phenanthridium derivatives” (Montana State University, priority 2006, dated 2015).

Test system: 8 bacterial species
Test: genomic DNA yield of live and dead cells after PMA or EMA treatment, wider spectrum of bacterial species
Format: cell-based
Details: all species tested, 50 μM, 5 minutes

Structure (SMILES): CC[n+]1c(-c2ccccc2)c2cc(N=[N+]=[N-])ccc2c2ccc(N)cc21.[Br-] [EMA]
- DNA from dead cells after dye treatment: equally efficient in removing DNA from dead cells
